Data on 16 molecules can be found in patent US4656182A, “Substituted trans-1,2-diaminocyclohexyl amide compounds” (dated 1987).

Sequences of proteins named here, by UniProt entry; tags and fusion partners are left off. A change or cut given only in a name is not applied to a line headed by its entry. Residues count along the entry.
UniProt A0ACM8Q262, 1-400: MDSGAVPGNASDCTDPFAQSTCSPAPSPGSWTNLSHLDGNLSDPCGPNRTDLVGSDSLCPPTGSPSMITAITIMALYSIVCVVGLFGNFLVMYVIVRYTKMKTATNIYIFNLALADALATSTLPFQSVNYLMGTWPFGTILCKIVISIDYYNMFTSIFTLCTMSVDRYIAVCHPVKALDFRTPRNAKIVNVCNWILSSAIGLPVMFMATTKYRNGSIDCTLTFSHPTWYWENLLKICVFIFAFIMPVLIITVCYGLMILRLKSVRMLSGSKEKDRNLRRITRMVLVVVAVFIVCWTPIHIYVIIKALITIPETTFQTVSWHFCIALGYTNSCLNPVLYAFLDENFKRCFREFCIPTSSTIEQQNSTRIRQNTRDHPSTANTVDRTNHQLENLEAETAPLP
UniProt P41144: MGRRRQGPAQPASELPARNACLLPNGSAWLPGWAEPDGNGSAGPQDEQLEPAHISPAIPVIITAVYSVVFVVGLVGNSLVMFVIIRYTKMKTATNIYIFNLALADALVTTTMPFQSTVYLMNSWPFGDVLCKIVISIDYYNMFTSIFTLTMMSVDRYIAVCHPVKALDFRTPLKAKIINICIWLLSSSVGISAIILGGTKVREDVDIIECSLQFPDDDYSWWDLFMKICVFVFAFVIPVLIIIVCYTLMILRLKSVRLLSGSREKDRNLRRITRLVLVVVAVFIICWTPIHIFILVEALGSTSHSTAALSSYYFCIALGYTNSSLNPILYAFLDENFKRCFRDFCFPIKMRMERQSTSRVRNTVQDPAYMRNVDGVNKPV

pKi: −log10 of the molar value.

One experiment deals with mu opioid receptor (Cavia porcellus, UniProt A0ACM8Q262). Briefly: mu opioid receptor site binding ([3H]DAGO, brain homogenates). Conditions: read-out: Ki Mu; guinea pig homogenate, tritiated DAGO, 150 minutes at 0° C.
The target of another experiment is kappa opioid receptor (Cavia porcellus, UniProt P41144). Briefly: kappa opioid receptor site binding ([3H]etorphine, brain homogenates, DADLE and DAGO added to saturate delta and mu). Conditions: read-out: Ki Kappa; guinea pig brain homogenate, tritiated etorphine, 200 nM DADLE and 200 nM DAGO.
In experiment [1] the test system is mice. Briefly: acetylcholine-induced writhing test. Particulars: 10 mg/kg s.c.
Experiment [2] deals with mice. Description: hot plate test at 55° C. Conditions: hot plate at 55° C., 10 mg/kg s.c., compared with control.
Another experiment concerns kappa. Conditions: P. V. Vanvoigtlander, et al., J. Pharmacol. Exp. Ther., 224:7-12 (1983); cited from earlier work.

On to `CN(C(=O)Cc1cccc2sccc12)[C@@H]1CCCC[C@H]1N1CCCCC1` (racemic), for which the pKi was 5.62 at mu opioid receptor and 6.61 on kappa opioid receptor.
Take `CN(C(=O)Cc1csc2ccccc12)[C@@H]1CCCC[C@H]1N1CCCC1` (racemic): the results for the pKi on mu opioid receptor and on kappa opioid receptor were less than 6.00 and 7.31, respectively.
`CN(C(=O)CC1=CCc2ccccc21)[C@@H]1CCCC[C@H]1N1CCCC1` (racemic): the figures for the negative-log Ki (pKi) on mu opioid receptor and on kappa opioid receptor were 5.00 and 7.00, respectively.
Regarding `CN(C(=O)Cc1ccc2scc(-c3ccccc3)c2c1)[C@@H]1CCCC[C@H]1N1CCCC1` (racemic), at kappa opioid receptor, the pKi was 5.00.
For `CN(C(=O)Cc1cccc2c(-c3cccs3)csc12)[C@@H]1CCCC[C@H]1N1CCCC1` (relative stereo), on kappa opioid receptor, the pKi was 5.00.
On to `CN(C(=O)Cc1ccc2c(c1)c1c(n2C)CCCC1)[C@@H]1CCCC[C@H]1N1CCCC1` (relative stereo), for which the figures for the pKi at mu opioid receptor and on kappa opioid receptor were 6.33 and 5.40, respectively.
For the molecule `CN(C(=O)Cc1ccc2occ(-c3ccccc3)c2c1)[C@@H]1CCCC[C@H]1N1CCCC1` (relative stereo), the pKi at mu opioid receptor is 5.00; at kappa opioid receptor, 6.00.
Consider `CN(C(=O)Cc1c[nH]c2ccccc12)[C@@H]1CCCC[C@H]1N1CCCC1.Cl` (relative stereo), for which the “writhing in the acetylcholine-induced writhing test” value in the experiment with mice [1] is listed as “abolition of writhing”.
For the molecule `CC(C)=CCN(C)[C@@H]1CCCC[C@H]1N(C)C(=O)Cc1cccc2sccc12` (racemic), the pKi is 7.49 on mu opioid receptor and 6.69 on kappa opioid receptor.
In the case of `C=CCN(C)[C@@H]1CCCC[C@H]1N(C)C(=O)Cc1cccc2sccc12` (racemic), the pKi is 6.68 on mu opioid receptor and 7.00 on kappa opioid receptor.
On to `CN(C(=O)Cc1cccc2sccc12)[C@@H]1CCCC[C@H]1N1CCCC1` (relative stereo), for which, in the experiment with mice [1], the “writhing in the acetylcholine-induced writhing test” value is reported as “abolition of writhing”. In addition, the “tolerance of heat on a hot plate” value in the experiment on mice [2] is “longer tolerance of heat”. Also, the negative-log Ki (pKi) was 6.39 at mu opioid receptor and 8.43 on kappa opioid receptor.
For `CN(CC1CC1)[C@@H]1CCCC[C@H]1N(C)C(=O)Cc1cccc2sccc12` (racemic), the pKi on kappa opioid receptor was 7.00.
Take `CN[C@@H]1CCCC[C@H]1N(C)C(=O)Cc1cccc2sccc12` (racemic): on mu opioid receptor, the negative-log Ki (pKi) was less than 6.00.
`CN(C(=O)Cc1c[nH]c2ccccc12)[C@@H]1CCCC[C@H]1N1CCCC1` (relative stereo): the pKi is 5.53 on mu opioid receptor and 7.13 on kappa opioid receptor.
As for `CN(C(=O)CC1=Cc2ccccc2C1)[C@@H]1CCCC[C@H]1N1CCCC1` (racemic), at kappa opioid receptor, the pKi is 5.00.
On to `CN(C(=O)Cc1ccc(Cl)c(Cl)c1)[C@@H]1CCCC[C@H]1N1CCCC1` (relative stereo), for which the kappa agonist activity entry in the experiment with kappa was “selective kappa agonist activity”.
